In ChEMBL document CHEMBL1150535, “Acyclic NK-1 antagonists: 2-benzhydryl-2-aminoethyl ethers” (Bioorg Med Chem Lett, 1994):
pIC50: −log10 of the molar value.

By UniProt entry, the sequences of proteins in these tests, tags left out.
UniProt P25103, whole entry: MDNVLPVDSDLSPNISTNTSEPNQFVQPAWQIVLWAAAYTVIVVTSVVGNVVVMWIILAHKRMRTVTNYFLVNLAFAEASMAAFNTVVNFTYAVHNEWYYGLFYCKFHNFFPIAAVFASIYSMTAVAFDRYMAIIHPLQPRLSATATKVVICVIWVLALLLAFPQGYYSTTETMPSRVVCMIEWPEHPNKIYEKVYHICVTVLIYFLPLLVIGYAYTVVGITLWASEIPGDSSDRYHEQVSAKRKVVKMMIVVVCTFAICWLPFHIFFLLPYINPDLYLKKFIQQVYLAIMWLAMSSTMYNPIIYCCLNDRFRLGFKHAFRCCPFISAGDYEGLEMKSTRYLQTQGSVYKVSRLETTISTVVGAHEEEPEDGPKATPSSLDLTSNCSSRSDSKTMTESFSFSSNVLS

Target: Substance-P receptor (Homo sapiens, UniProt P25103)
Test: Binding affinity towards human Tachykinin receptor 1 expressed in CHO cells by the displacement of [125 I] substance P
Format: cell-based

pIC50: 7.97
SMILES: NC(COCc1cc(C(F)(F)F)cc(C(F)(F)F)c1)C(c1ccccc1)c1ccccc1 (stereo unspecified)
